Measured values reported in patent publication US11786597B2, “Ionic liquids for transdermal drug delivery” (priority 2013, dated 2023).

Assay: Solubility in water (physical characterization)
Conditions: 25° C.

choline hexanoate [LANL-13]
solubility in water: 500 mM
